From ChEMBL document CHEMBL4014346, “Lead Optimization Generates CYP11B1 Inhibitors of Pyridylmethyl Isoxazole Type with Improved Pharmacological Profile for the Treatment of Cushing's Disease” (J Med Chem, 2017)

Target: T1, Cytochrome P450 11B2, mitochondrial (Homo sapiens, UniProt P19099)
T1 sequence (P19099 whole entry): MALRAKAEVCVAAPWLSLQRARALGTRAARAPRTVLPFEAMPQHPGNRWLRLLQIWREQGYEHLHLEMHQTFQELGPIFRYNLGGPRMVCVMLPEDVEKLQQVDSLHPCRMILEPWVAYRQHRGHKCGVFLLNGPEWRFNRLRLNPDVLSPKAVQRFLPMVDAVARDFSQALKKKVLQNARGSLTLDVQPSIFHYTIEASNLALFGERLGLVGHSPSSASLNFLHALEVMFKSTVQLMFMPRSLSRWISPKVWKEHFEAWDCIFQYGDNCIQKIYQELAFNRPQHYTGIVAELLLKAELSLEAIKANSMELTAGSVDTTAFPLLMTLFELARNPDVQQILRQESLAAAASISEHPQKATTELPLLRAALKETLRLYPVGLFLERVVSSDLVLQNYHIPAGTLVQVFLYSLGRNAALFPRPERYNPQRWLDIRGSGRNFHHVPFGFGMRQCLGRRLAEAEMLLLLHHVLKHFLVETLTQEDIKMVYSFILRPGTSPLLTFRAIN
Test: Inhibition of human CYP11B2 expressed in hamster V79MZ cells using [1,2-3H]-11-deoxycorticosterone as substrate after 6 hrs by HPLC analysis
Assay type: ADME, cell-based
Method in brief: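 V79MZ cells expressing recombinant human CYP11B1 or CYP11B2, or rat CYP11B1, incubated with [1,2-³H]-11-deoxycorticosterone (100 nM) and inhibitor over a range of concentrations; ketoconazole as reference.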

Compound: CC(C)(C(=O)c1cccnc1)c1cccnc1 [METYRAPONE]
- IC50: 72 nM
